Data as given in patent publication US20240261426A1, “CONJUGATES COMPRISING PHOSPHOANTIGENS AND THEIR USE IN THERAPY” (BYONDIS B.V., priority 2021, published 2024).

System: NK-cells
Assay: Functional assay with pretreated HER2-positive cell lines: NK-cell activation
Assay type: cell-based, human

Substance: trastuzumab: Anti-Her2 MoAb
- activation of NK-cells, in words (preincubated HCT-116 cells): did not display notable NK-cell activation
- activation of NK-cells, in words (pretreated BT-474, SK-BR-3 and SK-OV-3 cells): also activated NK-cells
